Data as given in patent US20130237511A1, “Copper Ion Delivery Platform for Pharmaceutical Agents” (University System of Georgia, priority 2012, published 2013).
Like-named read-outs stand apart in the source and are kept apart here.

Test system: National Cancer Institute 60 cancer cell line panel
[1] = A549/ATCC (Non-Small Cell Lung)
[2] = NCI-H322M (Non-Small Cell Lung)

CC(=O)OC1C(=O)C2(C)C(O)CC3OCC3(OC(C)=O)C2C(OC(=O)c2ccccc2)C2(O)CC(OC(=O)C(O)C(NC(=O)c3ccccc3)c3ccccc3)C(C)=C1C2(C)C.[Cu+2] (stereo not drawn) [Cu-Taxol]
Copper(II)-Taxol/Taxol ratio (A498 (Renal)): 1 | CuTax/FeTax ratio (A498 (Renal)): 0.01698 | logGI50 (A498 (Renal)): −8 Molar | CuTax/FeTax ratio (A549/ATCC (Non- Small Lung Cancer)): 0.1175 | Copper(II)-Taxol/Taxol ratio [1]: 0.9549 | logGI50 [1]: −8 Molar | Copper(II)-Taxol/Taxol ratio (ACHN (Renal)): 0.4074 | CuTax/FeTax ratio (ACHN (Renal)): 0.1318 | logGI50 (ACHN (Renal)): −6.41 Molar | Copper(II)-Taxol/Taxol ratio (Average of panel): 0.6918 | CuTax/FeTax ratio (Average of panel): 0.06577 | logGI50 (Average of panel): −7.748 Molar | Copper(II)-Taxol/Taxol ratio (BT-549 (Breast)): 0.7943 | CuTax/FeTax ratio (BT-549 (Breast)): 0.03236 | logGI50 (BT-549 (Breast)): −8 Molar | Copper(II)-Taxol/Taxol ratio (CAKI-1 (Renal)): 0.1778 | CuTax/FeTax ratio (CAKI-1 (Renal)): 0.01585 | logGI50 (CAKI-1 (Renal)): −7.25 Molar | Copper(II)-Taxol/Taxol ratio (CCRF-CEM (Leukemia)): 1 | CuTax/FeTax ratio (CCRF-CEM (Leukemia)): 0.01148 | logGI50 (CCRF-CEM (Leukemia)): −8 Molar | Copper(II)-Taxol/Taxol ratio (COLO205 (Colon)): 1 | CuTax/FeTax ratio (COLO205 (Colon)): 0.2291 | logGI50 (COLO205 (Colon)): −8 Molar | Copper(II)-Taxol/Taxol ratio (DU-145 (Prostate)): 1 | CuTax/FeTax ratio (DU-145 (Prostate)): 0.166 | logGI50 (DU-145 (Prostate)): −8 Molar | CuTax/FeTax ratio (EKVX (Non- Small Lung Cancer)): 0.005129 | Copper(II)-Taxol/Taxol ratio (EKVX (Non-Small Cell Lung)): 0.0912 | logGI50 (EKVX (Non-Small Cell Lung)): −8 Molar | Copper(II)-Taxol/Taxol ratio (HCC-2998 (Colon)): 0.9772 | CuTax/FeTax ratio (HCC-2998 (Colon)): 0.06607 | logGI50 (HCC-2998 (Colon)): −8 Molar | Copper(II)-Taxol/Taxol ratio (HCT-15 (Colon)): 1.0232 | CuTax/FeTax ratio (HCT-15 (Colon)): 0.1259 | logGI50 (HCT-15 (Colon)): −6.53 Molar | Copper(II)-Taxol/Taxol ratio (HCT-116 (Colon)): 1 | CuTax/FeTax ratio (HCT-116 (Colon)): 0.257 | logGI50 (HCT-116 (Colon)): −8 Molar | Copper(II)-Taxol/Taxol ratio (HL-60(TB) (Leukemia)): 1 | logGI50 (HL-60(TB) (Leukemia)): −8 Molar | CuTax/FeTax ratio (HOP-62 (Non- Small Lung Cancer)): 0.0008128 | Copper(II)-Taxol/Taxol ratio (HOP-62 (Non-Small Cell Lung)): 0.4168 | logGI50 (HOP-62 (Non-Small Cell Lung)): −8 Molar | CuTax/FeTax ratio (HOP-92 (Non- Small Lung Cancer)): 0.4898 | Copper(II)-Taxol/Taxol ratio (HOP-92 (Non-Small Cell Lung)): 338.84 | logGI50 (HOP-92 (Non-Small Cell Lung)): −5.29 Molar | Copper(II)-Taxol/Taxol ratio (HS578T (Breast)): 1 | CuTax/FeTax ratio (HS578T (Breast)): 0.07079 | logGI50 (HS578T (Breast)): −8 Molar | Copper(II)-Taxol/Taxol ratio (IGROV1 (Ovarian)): 0.5495 | CuTax/FeTax ratio (IGROV1 (Ovarian)): 0.04786 | logGI50 (IGROV1 (Ovarian)): −8 Molar | Copper(II)-Taxol/Taxol ratio (K-562 (Leukemia)): 0.7943 | CuTax/FeTax ratio (K-562 (Leukemia)): 0.1023 | logGI50 (K-562 (Leukemia)): −8 Molar | Copper(II)-Taxol/Taxol ratio (KM12 (Colon)): 1 | CuTax/FeTax ratio (KM12 (Colon)): 0.1585 | logGI50 (KM12 (Colon)): −8 Molar | Copper(II)-Taxol/Taxol ratio (LOXIMVI (Melanoma)): 1 | CuTax/FeTax ratio (LOXIMVI (Melanoma)): 0.09333 | logGI50 (LOXIMVI (Melanoma)): −8 Molar | Copper(II)-Taxol/Taxol ratio (M14 (Melanoma)): 0.9772 | CuTax/FeTax ratio (M14 (Melanoma)): 0.1585 | logGI50 (M14 (Melanoma)): −8 Molar | Copper(II)-Taxol/Taxol ratio (MCF7 (Breast)): 1 | CuTax/FeTax ratio (MCF7 (Breast)): 0.3162 | logGI50 (MCF7 (Breast)): −8 Molar | Copper(II)-Taxol/Taxol ratio (MDA-MB-231/ATCC (Breast)): 1 | CuTax/FeTax ratio (MDA-MB-231/ATCC (Breast)): 0.0138 | logGI50 (MDA-MB-231/ATCC (Breast)): −8 Molar | Copper(II)-Taxol/Taxol ratio (MDA-MB-435 (Melanoma)): 0.7762 | CuTax/FeTax ratio (MDA-MB-435 (Melanoma)): 0.5623 | logGI50 (MDA-MB-435 (Melanoma)): −8 Molar | Copper(II)-Taxol/Taxol ratio (MDA-MB-468 (Breast)): 1 | CuTax/FeTax ratio (MDA-MB-468 (Breast)): 0.2754 | logGI50 (MDA-MB-468 (Breast)): −8 Molar | Copper(II)-Taxol/Taxol ratio (MOLT-4 (Leukemia)): 0.6309 | CuTax/FeTax ratio (MOLT-4 (Leukemia)): 0.0007244 | logGI50 (MOLT-4 (Leukemia)): −8 Molar | medicinal / anti-cancer activity in comparison (NCI 60 cell line panel, 10^-4 to 10^-8 M): superior to the pure taxol molecule | CuTax/FeTax ratio (NCI-H23 (Non- Small Lung Cancer)): 0.06166 | Copper(II)-Taxol/Taxol ratio (NCI-H23 (Non-Small Cell Lung)): 0.8709 | logGI50 (NCI-H23 (Non-Small Cell Lung)): −8 Molar | CuTax/FeTax ratio (NCI-H226 (Non- Small Lung Cancer)): 15.85 | Copper(II)-Taxol/Taxol ratio (NCI-H226 (Non-Small Cell Lung)): 12.302 | logGI50 (NCI-H226 (Non-Small Cell Lung)): −4.92 Molar | CuTax/FeTax ratio (NCI-H322M (Non- Small Lung Cancer)): 0.0302 | Copper(II)-Taxol/Taxol ratio [2]: 1 | logGI50 [2]: −8 Molar | CuTax/FeTax ratio (NCI-H460 (Non- Small Lung Cancer)): 0.1995 | Copper(II)-Taxol/Taxol ratio (NCI-H460 (Non-Small Cell Lung)): 1 | logGI50 (NCI-H460 (Non-Small Cell Lung)): −8 Molar | CuTax/FeTax ratio (NCI-H522 (Non- Small Lung Cancer)): 0.257 | Copper(II)-Taxol/Taxol ratio (NCI-H522 (Non-Small Cell Lung)): 1 | logGI50 (NCI-H522 (Non-Small Cell Lung)): −8 Molar | Copper(II)-Taxol/Taxol ratio (NCI/ADR-RES (Ovarian)): 0.7244 | CuTax/FeTax ratio (NCI/ADR-RES (Ovarian)): 0.07244 | logGI50 (NCI/ADR-RES (Ovarian)): −5.86 Molar | Copper(II)-Taxol/Taxol ratio (OVCAR-3 (Ovarian)): 0.7079 | CuTax/FeTax ratio (OVCAR-3 (Ovarian)): 0.2291 | logGI50 (OVCAR-3 (Ovarian)): −8 Molar | Copper(II)-Taxol/Taxol ratio (OVCAR-4 (Ovarian)): 0.0067 | CuTax/FeTax ratio (OVCAR-4 (Ovarian)): 0.0138 | logGI50 (OVCAR-4 (Ovarian)): −8 Molar | Copper(II)-Taxol/Taxol ratio (OVCAR-5 (Ovarian)): 0.6607 | CuTax/FeTax ratio (OVCAR-5 (Ovarian)): 0.01148 | logGI50 (OVCAR-5 (Ovarian)): −8 Molar | Copper(II)-Taxol/Taxol ratio (OVCAR-8 (Ovarian)): 1 | CuTax/FeTax ratio (OVCAR-8 (Ovarian)): 0.138 | logGI50 (OVCAR-8 (Ovarian)): −8 Molar | Copper(II)-Taxol/Taxol ratio (RPMI-8226 (Leukemia)): 1 | CuTax/FeTax ratio (RPMI-8226 (Leukemia)): 0.1349 | logGI50 (RPMI-8226 (Leukemia)): −8 Molar | Copper(II)-Taxol/Taxol ratio (RXF393 (Renal)): 1 | CuTax/FeTax ratio (RXF393 (Renal)): 0.1047 | logGI50 (RXF393 (Renal)): −8 Molar | Copper(II)-Taxol/Taxol ratio (SF-268 (CNS)): 0.912 | CuTax/FeTax ratio (SF-268 (CNS)): 0.06026 | logGI50 (SF-268 (CNS)): −8 Molar | Copper(II)-Taxol/Taxol ratio (SF-295 (CNS)): 0.6760 | CuTax/FeTax ratio (SF-295 (CNS)): 0.1202 | logGI50 (SF-295 (CNS)): −8 Molar | Copper(II)-Taxol/Taxol ratio (SF-539 (CNS)): 1 | CuTax/FeTax ratio (SF-539 (CNS)): 0.1905 | logGI50 (SF-539 (CNS)): −8 Molar | Copper(II)-Taxol/Taxol ratio (SK-MEL-5 (Melanoma)): 1 | CuTax/FeTax ratio (SK-MEL-5 (Melanoma)): 0.1479 | logGI50 (SK-MEL-5 (Melanoma)): −8 Molar | Copper(II)-Taxol/Taxol ratio (SK-MEL-28 (Melanoma)): 0.01148 | CuTax/FeTax ratio (SK-MEL-28 (Melanoma)): 0.0007586 | logGI50 (SK-MEL-28 (Melanoma)): −8 Molar | Copper(II)-Taxol/Taxol ratio (SK-OV-3 (Ovarian)): 0.8912 | CuTax/FeTax ratio (SK-OV-3 (Ovarian)): 0.07079 | logGI50 (SK-OV-3 (Ovarian)): −8 Molar | Copper(II)-Taxol/Taxol ratio (SN12C (Renal)): 0.1585 | CuTax/FeTax ratio (SN12C (Renal)): 0.04571 | logGI50 (SN12C (Renal)): −8 Molar | Copper(II)-Taxol/Taxol ratio (SNB-19 (CNS)): 0.8709 | CuTax/FeTax ratio (SNB-19 (CNS)): 0.01862 | logGI50 (SNB-19 (CNS)): −8 Molar | Copper(II)-Taxol/Taxol ratio (SNB-75 (CNS)): 1 | CuTax/FeTax ratio (SNB-75 (CNS)): 0.4365 | logGI50 (SNB-75 (CNS)): −8 Molar | Copper(II)-Taxol/Taxol ratio (SR (Leukemia)): 0.3162 | CuTax/FeTax ratio (SR (Leukemia)): 0.05012 | logGI50 (SR (Leukemia)): −8 Molar | Copper(II)-Taxol/Taxol ratio (SW-620 (Colon)): 1 | CuTax/FeTax ratio (SW-620 (Colon)): 0.1514 | logGI50 (SW-620 (Colon)): −8 Molar | Copper(II)-Taxol/Taxol ratio (TK-10 (Renal)): 0.3467 | CuTax/FeTax ratio (TK-10 (Renal)): 0.04898 | logGI50 (TK-10 (Renal)): −7.49 Molar | Copper(II)-Taxol/Taxol ratio (U251 (CNS)): 1 | CuTax/FeTax ratio (U251 (CNS)): 0.1549 | logGI50 (U251 (CNS)): −8 Molar | Copper(II)-Taxol/Taxol ratio (UACC-62 (Melanoma)): 0.7413 | CuTax/FeTax ratio (UACC-62 (Melanoma)): 0.1148 | logGI50 (UACC-62 (Melanoma)): −8 Molar | Copper(II)-Taxol/Taxol ratio (UACC-257 (Melanoma)): 0.04365 | CuTax/FeTax ratio (UACC-257 (Melanoma)): 0.0005495 | logGI50 (UACC-257 (Melanoma)): −8 Molar | Copper(II)-Taxol/Taxol ratio (UO-31 (Renal)): 0.6026 | CuTax/FeTax ratio (UO-31 (Renal)): 0.04571 | logGI50 (UO-31 (Renal)): −6.65 Molar
